Yeast mating assay B: variants of the scFv Ab-14

Binding partner: SARS-CoV-2 spike HR2 peptide, sequence PDVDLGDISGINAS.

Each scFv is VH, the linker GGGGSGGGGSGGGGS, VL, as in the parent Ab-14, and differs from it in the CDRs of the light chain only.
VH: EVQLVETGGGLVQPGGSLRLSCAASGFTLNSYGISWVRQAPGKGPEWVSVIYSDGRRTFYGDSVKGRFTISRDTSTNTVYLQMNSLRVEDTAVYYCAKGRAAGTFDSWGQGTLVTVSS
VL: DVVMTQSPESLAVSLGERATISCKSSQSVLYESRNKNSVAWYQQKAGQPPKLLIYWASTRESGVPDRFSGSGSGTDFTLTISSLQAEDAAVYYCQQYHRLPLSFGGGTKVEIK

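The starting antibody came from a phage panning campaign against this peptide. These sequences belong to a second round, designed from the earlier measurements on random variants of the parent. Their group label is 14L_GP_Gen (GP: Gaussian process model; Gen: genetic algorithm; a sequence that several methods proposed may carry one label only). Affinity was read by AlphaSeq, a pooled yeast mating assay with surface-displayed partners. Pairs that bind mate more often; barcode pairs of the diploids are counted by sequencing. Scores were corrected for input abundance and mapped to Kd with protein pairs of known affinity run in the same pool. There are six technical replicates.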

The parent's light chain CDRs are KSSQSVLYESRNKNSVA, WASTRES, QQYHRLPLS; each variant's own CDRs replace them letter for letter.
The read-out is the apparent dissociation constant on a log10 scale (nM): the lower, the stronger.
An entry "nd" has no value in the source: the pair was not observed among the diploids in that replicate. This suggests poor binding but is not conclusive.
A sequence measured in both rounds can read differently, since the two assays cover different ranges.
Empty control strains, which show no peptide, gave a signal in 4% of pairings with all light chain designs; the median was 2.64 and 95% of these signals were weaker than 1.59. No background was subtracted. The control count says in how many pairings with the empty strains this scFv gave a signal, with their mean in brackets.
The authors' rule: three or more of the six replicates give a measured affinity, fewer mean a poor binder.

| CDR-L1 | CDR-L2 | CDR-L3 | log10 Kd, replicates | control signals |
|---|---|---|---|---|
| KLSQSDLYESRMKNSVA | EASTRES | QQYHRLPLS | -0.05 0.01 -0.28 -0.24 -0.18 -0.07 | 2/18 (2.81) |
| KLYQSVLYESRNKNSVA | NASQRLS | QQYHRLPLS | 0.60 0.51 0.57 0.21 0.42 0.49 | 1/18 (4.91) |
| KLYQSDLYESRNKNSVA | NASQRES | QQYHRLPLS | -0.12 -0.30 -0.47 -0.57 -0.30 -0.15 | 0/18 |
| KFSQSGLYESRNKNSVA | DASTRES | QQYHRLPLS | 0.02 -0.19 -0.01 -0.70 -0.27 -0.33 | 1/18 (2.18) |
| KVSQSDLYESRNKNNVA | DASTRES | QQYHRLPLS | -0.43 -0.52 -0.66 -0.71 -0.67 -0.20 | 1/18 (2.26) |
| KLSQSVLYESRLKNSVA | NASTRMS | QQYHRLPLS | 0.03 0.01 -0.12 -0.11 -0.15 0.27 | 2/18 (2.68) |
| KLSQSVLYESRQKNSVA | NASYRES | QQYHRLPLS | 0.04 0.05 0.18 0.23 -0.04 0.34 | 5/18 (2.97) |
| KLSQSVLYESRMKNSVA | NASTRLS | QQYHRLPLS | 0.28 0.09 -0.01 0.11 0.20 0.27 | 0/18 |
| KMPQSNLYESRNKNSVA | NASQRES | QQYHRLPLS | 0.50 0.06 0.64 0.43 0.03 0.43 | 0/18 |
| KFQQSVLYESRNKNSVA | DASQRES | QQYHRLPLS | -0.39 -0.06 -0.62 -0.45 -0.21 -0.15 | 0/18 |
| KLQQSVPYESRNKNSVA | DASTRES | QQYHRLPLS | -0.25 0.00 -0.32 -0.54 -0.46 -0.30 | 0/18 |
| KVSWSELYESRNKNSVA | EASTRES | QQYHRLPLS | -0.52 -0.34 -0.30 -0.67 -0.67 -0.36 | 1/18 (1.09) |
| KLSQSVLYESRNKASVA | DASTRES | QQYHRLPLS | 0.16 0.04 0.00 -0.12 -0.06 0.05 | 0/18 |
| KLSQSVLYESRNKNSVA | NASTRMS | QSYHRLPLS | 0.05 0.08 -0.23 -0.30 0.05 -0.16 | 3/18 (3.09) |
| KLSQSVMYESRNKNNVA | EASTRES | QQYHRLPLS | 1.17 0.15 0.06 0.12 0.28 0.43 | 2/18 (2.03) |
| KMSQSHLYESRNKNSVA | DASTRES | QQYHRLPLS | 0.86 0.38 0.84 0.22 0.85 0.48 | 2/18 (2.03) |
| KVSQSMLYESRNKNSVA | DASTRES | QQYHRLPLS | -0.43 -0.60 -0.11 -0.63 -0.37 -0.45 | 1/18 (1.24) |
| KVSQSNLYESRNKNSVA | NASTRMS | QQYHRLPLS | 0.22 0.10 0.28 0.14 0.14 0.42 | 3/18 (2.88) |
| KLQQSVLYESRNKNSVA | DASTRED | QQYHRLPLS | -0.21 -0.53 -0.64 -0.64 -0.46 0.01 | 1/18 (2.47) |
| KLQQSVPYESRNKNSVA | NASTREQ | QQYHRLPLS | 0.48 0.59 0.48 0.14 0.27 0.74 | 2/18 (2.92) |
| KLQQSMLYESRNKNSVA | NASTRLS | QQYHRLPLS | -0.03 -0.26 -0.24 -0.34 -0.36 -0.11 | 1/18 (2.05) |
| KLQQSVLYESRNKNSVA | QASTRCS | QQYHRLPLS | -0.01 0.05 -0.20 -0.28 -0.11 0.03 | 1/18 (3.92) |
| KLSQSVLYESRTKNSVA | NASTRES | QQYHRLPLS | 0.30 0.26 -0.02 0.03 0.06 0.33 | 0/18 |
| KLSQSVLYESRNKNNVA | NASQRES | QQYHRLPLS | nd 1.57 nd nd nd nd | 0/18 |
| KVSQSVLYESRNKASVA | NASTRES | QQYHRLPLS | -0.04 -0.14 -0.09 -0.20 -0.11 0.14 | 2/18 (2.98) |
| KVSQSWLYESRNWNSVA | NASTRES | QQYHRLPLS | -0.11 -0.06 -0.25 -0.46 -0.14 -0.11 | 1/18 (2.47) |
| KVSQSHLYESRNKNSVA | QASTRES | QQYHRLPLM | 0.75 0.50 0.32 0.44 0.25 0.42 | 1/18 (2.36) |
| KLQQSWLYESRNKNSVA | DASQRES | QQYHRLPLS | -0.15 -0.27 -0.23 -0.30 -0.27 -0.15 | 2/18 (3.13) |
| KLSQSFLYESRNKNNVA | AASTRES | QQYHRLPLS | -0.40 -0.36 -0.35 -0.09 -0.22 -0.12 | 0/18 |
| KLSQSDLYEDRNKNSVA | NASTRES | QQYHRLPLS | -0.04 0.11 0.21 -0.03 -0.29 0.36 | 0/18 |
| KFPQSTLYESRNKNSVA | NASTRES | QQYHRLPLS | 0.16 -0.02 -0.46 -0.26 -0.06 0.17 | 0/18 |
| KLPQSWLYESRNKNAVA | NASTRES | QQYHRLPLS | -0.30 -0.41 -0.45 -0.43 -0.30 -0.24 | 0/18 |
| KLYQSVLYESRNKNSVA | NASTRCS | QQYHRLPLS | 0.11 -0.02 -0.21 -0.13 -0.14 0.08 | 3/18 (2.94) |
| KLSQSVLYESRNKNSVA | DASTRCS | QQYHRLPLS | -0.27 -0.42 -0.41 -0.57 -0.38 -0.30 | 1/18 (3.37) |

Source: Li et al. 2023 (doi:10.1038/s41467-023-39022-2), MIT Lincoln Laboratory and A-Alpha Bio; data file from the FLAb repository.